Source: patent US20250313563A1, “GLYCOGEN SYNTHASE KINASE 3 INHIBITORS AND USES THEREOF” (The Broad Institute, Inc., priority 2022, published 2025)
Read-outs that look alike come from different tables or passages of the source.

Amino acid sequences for entries named in this document (tags omitted).
UniProt P49841, whole entry: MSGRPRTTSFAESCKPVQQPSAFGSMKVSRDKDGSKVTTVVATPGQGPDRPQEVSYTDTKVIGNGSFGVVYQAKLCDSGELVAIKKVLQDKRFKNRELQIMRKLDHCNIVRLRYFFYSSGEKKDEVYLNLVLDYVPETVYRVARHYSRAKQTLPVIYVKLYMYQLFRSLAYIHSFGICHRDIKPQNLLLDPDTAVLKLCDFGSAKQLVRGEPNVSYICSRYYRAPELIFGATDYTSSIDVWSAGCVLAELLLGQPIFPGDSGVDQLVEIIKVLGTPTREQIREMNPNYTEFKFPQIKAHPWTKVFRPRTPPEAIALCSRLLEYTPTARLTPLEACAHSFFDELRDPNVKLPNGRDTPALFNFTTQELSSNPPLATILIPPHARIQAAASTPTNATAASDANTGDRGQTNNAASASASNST
UniProt P49840, whole entry: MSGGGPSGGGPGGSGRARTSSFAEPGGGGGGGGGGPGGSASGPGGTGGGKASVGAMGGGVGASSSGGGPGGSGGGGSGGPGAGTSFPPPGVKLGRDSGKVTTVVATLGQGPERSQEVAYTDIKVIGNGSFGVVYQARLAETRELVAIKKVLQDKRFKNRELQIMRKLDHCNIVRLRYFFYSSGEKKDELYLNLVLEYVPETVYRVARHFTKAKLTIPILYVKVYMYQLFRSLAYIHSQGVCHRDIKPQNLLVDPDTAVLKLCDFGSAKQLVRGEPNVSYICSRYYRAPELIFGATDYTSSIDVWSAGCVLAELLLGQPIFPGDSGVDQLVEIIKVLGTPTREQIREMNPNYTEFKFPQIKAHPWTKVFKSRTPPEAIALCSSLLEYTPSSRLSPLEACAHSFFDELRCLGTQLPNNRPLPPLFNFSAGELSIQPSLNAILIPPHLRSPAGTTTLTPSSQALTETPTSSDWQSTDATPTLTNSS

Experiments:
[1] = molecular target: GSK3b (GST-full length GSK3b) (Homo sapiens (Human), UniProt P49841); test: GSK3b TR-FRET kinase assay; type: biochemical
[2] = molecular target: GSK3α (GST-full length GSK3α) (Homo sapiens (Human), UniProt P49840); test: GSK3α TR-FRET kinase assay; type: biochemical
[3] = read-out: GSK3-B TR-FRET BIOCHEMICAL (TR-FRET), GMean, IC50, 1 nM GSK3b, 2 μM ATP, 30 minute preincubation, geometric mean
[4] = read-out: GSK3-A TR-FRET BIOCHEMICAL (TR-FRET), GMean, IC50, 1 nM GSK3α, 4 μM ATP, 30 minute preincubation, geometric mean
[5] = read-out: GSK3-B (TR-FRET 1 mM ATP), GMean, IC50, 1 mM ATP, geometric mean
[6] = read-out: GSK3-A (TR-FRET 1 mM ATP), GMean, IC50, 1 mM ATP, geometric mean
[7] = read-out: GSK3-B TR-FRET BIOCHEMICAL (TR-FRET), IC50, 1 nM GSK3b, 2 μM ATP, 30 minute preincubation (Table 16)
[8] = read-out: GSK3-A TR-FRET BIOCHEMICAL (TR-FRET), IC50, 1 nM GSK3α, 4 μM ATP, 30 minute preincubation (Table 16)
[9] = read-out: GSK3-B TR-FRET BIOCHEMICAL (TR-FRET);, 1 nM GSK3b, 2 μM ATP, 30 minute preincubation, Table 16
[10] = read-out: GSK3-A TR-FRET BIOCHEMICAL (TR-FRET);, 1 nM GSK3α, 4 μM ATP, 30 minute preincubation, Table 16

| IC50 [1, 3] | IC50 [2, 4] | IC50 [1, 5] | IC50 [2, 6] | SMILES | other results |
| --- | --- | --- | --- | --- | --- |
| 1000 to 5000 nM | 100 to 1000 nM |  |  | CCC1(c2cccc(OC)c2)C2=C(CC(C)(C)NC2=O)Nc2n[nH]cc21 (centres unmarked) |  |
| > 5000 nM | 1000 to 5000 nM |  |  | CC[C@]1(c2cccc(-c3ccnc(C)c3C)c2)C2=C(CC(C)(C)NC2=O)Nc2n[nH]c(C)c21 |  |
| 100 to 1000 nM | < 100 nM | 1000 to 5000 nM | 100 to 1000 nM | CC[C@]1(c2cccc(-c3ccnn3C)c2)C2=C(C[C@@]3(CCCOC3)NC2=O)Nc2n[nH]cc21 |  |
| < 100 nM | < 100 nM | > 5000 nM | > 5000 nM | CC[C@@]1(c2cccc(-c3cc(OC)ncc3F)c2)C2=C(CC(C)(C)NC2=O)Nc2n[nH]cc21 |  |
| 100 to 1000 nM | < 100 nM |  |  | CC[C@@]1(c2cccc(N(C)c3ccncc3)c2)C2=C(CC(C)(C)CC2=O)Nc2n[nH]cc21 |  |
|  |  | 1000 to 5000 nM | 100 to 1000 nM | CC[C@]1(c2cccc(-c3ccnc(C)c3F)c2)C2=C(CC(C)(C)CC2=O)Nc2n[nH]cc21 | IC50 [1, 7]: < 100 nM; IC50 [2, 8]: < 100 nM |
| 100 to 1000 nM | < 100 nM | > 5000 nM | 100 to 1000 nM | CCC1(c2cccc(-c3cc(C)ncc3F)c2)C2=C(CC(C)(C)NC2=O)Nc2n[nH]cc21 (centres unmarked) [Compound 947804] |  |
|  |  | 1000 to 5000 nM | 100 to 1000 nM | CCc1cccc([C@]2(CC)C3=C(CC(C)(C)CC3=O)Nc3n[nH]cc32)c1 | IC50 [1, 9]: < 100 nM; IC50 [2, 10]: < 100 nM |
|  | 100 to 1000 nM |  |  | CC[C@]1(c2cccc(C(F)(F)F)c2)C2=C(CC3(CCCC3)CC2=O)Nc2n[nH]cc21 |  |
| > 5000 nM | 1000 to 5000 nM |  |  | CC[C@@]1(c2cccc(-c3ccnc(C)c3)c2)C2=C(C[C@@]3(CCOC3)NC2=O)Nc2n[nH]cc21 |  |
| < 100 nM | < 100 nM |  |  | CC[C@@]1(c2cccc(-c3ccnn3C)c2)C2=C(C[C@]3(CCOC3)NC2=O)Nc2n[nH]cc21 |  |

Second part, the compound before the results:

| SMILES | IC50 [1, 3] | IC50 [2, 4] | IC50 [1, 5] | IC50 [2, 6] | other results |
| --- | --- | --- | --- | --- | --- |
| CC1(C)CC2=C(C(=O)N1)[C@@](C)(c1cccc(S(C)(=O)=O)c1)c1c(n[nH]c1C1CC1)N2 |  |  | 100 to 1000 nM | < 100 nM |  |
| CC(C)(C)Cc1[nH]nc2c1[C@]1(CCCc3ccccc31)C1=C(CC(C)(C)CC1=O)N2 | 100 to 1000 nM | 1000 to 5000 nM |  |  |  |
| CC[C@@]1(c2cccc(N(C)c3ccnc(F)c3)c2)C2=C(CC(C)(C)CC2=O)Nc2n[nH]cc21 |  |  |  |  | IC50 [1, 7]: < 100 nM; IC50 [2, 8]: < 100 nM |
| CC(C)(C)Cc1[nH]nc2c1[C@@]1(COc3ccccc31)C1=C(CC(C)(C)CC1=O)N2 |  |  | > 5000 nM | > 5000 nM |  |
| CC[C@@]1(c2cccc(-c3ccnc4ccccc34)c2)C2=C(CC(C)(C)CC2=O)Nc2n[nH]cc21 |  |  |  |  | IC50 [1, 9]: > 5000 nM; IC50 [2, 10]: > 5000 nM |
| CC[C@@]1(c2cccc(C(F)F)c2)C2=C(CC(C)(C)CC2=O)Nc2n[nH]c(C(F)(F)F)c21 |  |  |  |  | IC50 [1, 9]: 100 to 1000 nM; IC50 [2, 10]: < 100 nM |
| CC[C@]1(c2cccc(C(F)(F)F)c2)C2=C(CCN(c3cnsc3)C2=O)Nc2n[nH]cc21 |  |  |  |  | IC50 [1, 7]: 1000 to 5000 nM; IC50 [2, 8]: 100 to 1000 nM |
| CC1(C)CC(=O)C2=C(C1)Nc1n[nH]cc1[C@@]21CCCN(S(=O)(=O)Cc2ccccc2)CC1 |  |  |  |  | IC50 [1, 9]: 100 to 1000 nM; IC50 [2, 10]: < 100 nM |
| CC[C@@]1(c2cccc(S(=O)(=O)CCOC)c2)C2=C(CC(C)(C)CC2=O)Nc2n[nH]cc21 |  |  | 1000 to 5000 nM | 100 to 1000 nM | IC50 [1, 9]: < 100 nM; IC50 [2, 10]: < 100 nM |
| CC(C)(C)Cc1[nH]nc2c1[C@@]1(CCCc3ccccc31)C1=C(CC(C)(C)CC1=O)N2 | < 100 nM | 100 to 1000 nM |  |  |  |
| COc1ccc(S(=O)(=O)N2CCC[C@@]3(CC2)C2=C(CC(C)(C)CC2=O)Nc2n[nH]cc23)cc1 |  |  |  |  | IC50 [1, 9]: 100 to 1000 nM; IC50 [2, 10]: < 100 nM |
| CC[C@]1(c2cccc(NS(C)(=O)=O)c2)C2=C(CC(C)(C)CC2=O)Nc2n[nH]cc21 |  |  |  |  | IC50 [1, 7]: < 100 nM; IC50 [2, 8]: < 100 nM |
| CC(C)(C)Cc1[nH]nc2c1C1(CCCc3ccccc31)C1=C(CC(C)(C)CC1=O)N2 (centres unmarked) | < 100 nM | 100 to 1000 nM |  |  |  |
| CC[C@]1(c2cccc(-c3cc(C)nnc3C)c2)C2=C(CC(C)(C)NC2=O)Nc2n[nH]c(C(F)(F)F)c21 |  |  | < 100 nM | < 100 nM | IC50 [1, 7]: < 100 nM; IC50 [2, 8]: < 100 nM |
| CCC1(c2ccccc2)C2=C(CC(C)(C)CC2=O)Nc2n[nH]c(C(F)(F)F)c21 (centres unmarked) | < 100 nM | < 100 nM |  |  |  |
| CCC1(c2ccccc2)C(C(C)=O)=C(C)Nc2n[nH]cc21 (centres unmarked) |  |  |  |  | IC50 ([1]; read-out: GSK3-B TR-FRET BIOCHEMICAL (TR-FRET), IC50, 1 nM GSK3b, 2 μM ATP, 30 minute preincubation): > 5000 nM; IC50 ([2]; read-out: GSK3-A TR-FRET BIOCHEMICAL (TR-FRET), IC50, 1 nM GSK3α, 4 μM ATP, 30 minute preincubation): > 5000 nM |
| CC[C@@]1(c2cccc(-c3ccncc3C(F)(F)F)c2)C2=C(CC(C)(C)CC2=O)Nc2n[nH]cc21 |  |  |  |  | IC50 [1, 9]: 1000 to 5000 nM; IC50 [2, 10]: 100 to 1000 nM |
| CC[C@@]1(c2cccc(-c3cc(C)ncc3C)c2)C2=C(CC(C)(C)NC2=O)Nc2n[nH]c(C(F)(F)F)c21 |  |  |  |  | IC50 [1, 9]: 100 to 1000 nM; IC50 [2, 10]: 100 to 1000 nM |
